One molecule from publication PMC12223415 (RSC Chemical Biology, 2025) can be followed below.

The target of this assay is T1, β-glucocerebrosidase (GCase) (Homo sapiens, UniProt P04062).
T1 sequence (P04062 40-536): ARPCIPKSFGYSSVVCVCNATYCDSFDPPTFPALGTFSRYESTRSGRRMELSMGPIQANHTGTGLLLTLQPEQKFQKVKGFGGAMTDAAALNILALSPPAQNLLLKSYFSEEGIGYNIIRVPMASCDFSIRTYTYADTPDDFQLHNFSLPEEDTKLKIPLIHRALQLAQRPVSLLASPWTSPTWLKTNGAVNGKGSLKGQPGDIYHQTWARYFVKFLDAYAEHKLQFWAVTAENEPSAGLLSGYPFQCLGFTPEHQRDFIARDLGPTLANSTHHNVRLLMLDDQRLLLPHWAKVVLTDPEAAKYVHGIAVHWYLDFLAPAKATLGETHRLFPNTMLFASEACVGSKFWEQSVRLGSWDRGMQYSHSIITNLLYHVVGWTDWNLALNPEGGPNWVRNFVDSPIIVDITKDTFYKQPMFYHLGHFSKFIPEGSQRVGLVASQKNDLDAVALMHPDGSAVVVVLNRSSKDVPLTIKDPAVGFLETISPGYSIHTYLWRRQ
The assay is classed as cell-based.

A word on the IC50: it is the concentration that gives 50% inhibition. A low value points to greater potency in that assay. Regarding `O[C@H]1[C@H](O)CNC[C@@H]1C(F)F` [AT3375], the half-inhibitory concentration (IC50) worked out at 11 ± 2 nM.
